Key:
[1] = system: experimental leukemias and solid tumors; experiment: Activity against experimental leukemias and solid tumors, overall comparison; format: in vivo; conditions: mice and rats; as illustrated in Tables 1 and 2
Lewis lung carcinoma = experiment: Response of s.c. implanted Lewis lung carcinoma (Table 2); conditions: i.p.; for Log kill total (Log10 cell kill): calculated from T C value/(3.32 T4)
[2] = system: MCF-7 mammary tumor xenograft; experiment: Response of s.c. implanted MCF-7 mammary tumor xenograft (Table 5); format: in vivo, human; conditions: doses equal to or less than the LD20, 5-day treatment schedule
mammary tumor 16/C = experiment: Evaluation against mammary tumor 16/C (FIGURE); format: in vivo, murine; conditions: results shown in the figure
P388 leukemia = experiment: Evaluation against i.p. implanted P388 leukemia (Table 3); format: in vivo, murine; conditions: IP; Q1DX1 (1); 100 mg/kg
[3] = day 2, Q5 min × 7, 30 mg/kg/dose

## NP(=O)(O)N(CCCl)CCCl
[1]
  comparative therapeutic efficacy against experimental leukemias and solid tumors: inferior to IPM against experimental solid tumors
Lewis lung carcinoma; day 2, Q5 min × 7
  Highest non-toxic dosage (MTD): 30 mg kg^-1 /dose
Lewis lung carcinoma; [3]
  % ILS (increase in life span, excluding survivors): 17%
  Tumour-free survivors: 0/10
  Log kill total (Log10 cell kill): 1.5 log10
Lewis lung carcinoma; day 2, single dose
  Highest non-toxic dosage (MTD): 200 mg kg^-1 /dose
Lewis lung carcinoma; day 2, single dose at MTD
  % ILS (increase in life span, excluding survivors): 15%
  Tumour-free survivors: 0/10
  Log kill total (Log10 cell kill): 1.2 log10

## CS(=O)(=O)OCCNP(=O)(O)NCCOS(C)(=O)=O
[2]
  Days Delay (T-C): 4.7 days
Mammary tumor 16/C
  tumor response / comparative activity vs. 16/C: none of which caused tumor regression
P388 leukemia
  45-Day Surv/Total: 0/5
  % ILS: +64%
  Approx. Net Log10 Change In Tumor Burden at End of Rx: -4.8 Log10
  Median Day of Death: 18.0 days

— patent publication US6197760A (priority 2000, dated 2001)
